Data reported in US6352723B1, “Brain-derived alkali-soluble immunoregulatory composition” (priority 1999, dated 2002).

Tested on: lymphocytes
Assay: Proliferation assay for stimulated lymphocytes (tritiated thymidine incorporation; % suppression, SI)
Assay type: cell-based, mice
Details: 10 ng/ml IL-2, n=6

## IL-2: IL-2 added to the culture media at 10 ng/ml [reference compound]
  SI with IL-2: 8.0±2.8
